{
  "source": "patent US20240368185A1",
  "about": "“MACROCYCLIC AZOLOPYRIDINES” (Fulcrum Therapeutics, Inc., priority 2021, published 2024)",
  "test": "Salt screening: XRPD form after exposure to 95%+ relative humidity for one day",
  "assay_type": "physicochemical",
  "design": "key: Am = amorphous",
  "details": "slurry solvent EtOH; solid dried under vacuum at 50° C., then 95%+ relative humidity for one day",
  "method": "A stock solution of Form P material of (S)-12-fluoro-4-(2-methylpyridin-3-yl)-7a,8,13,14-tetrahydro-7H-[1,2,4]triazolo[4′,3′:1,6]pyrido[3,2-b]benzofuro[4,3-fg][1,4]oxazonine, free base, was prepared in 2,2,2-trifluoroethanol (50.8 mg/mL). Stock solutions of counter ion were prepared in EtOH.\nSalt formation was carried out at room temperature in 2 mL vials. 25.4 mg of Form P free base material (500 μL stock solution) and 1.1 equivalents of counter ion were added to each vial. Solvent was allowed to evaporate at 40° C. overnight with stirring. […] These vials were kept on the hotplate to continue evaporating (temperature increased to 50° C.), while the more-dry samples were dried further under vacuum for 3 hours at 50° C. The samples still containing solvent at the end of the day were left to stir at 30° C. over the weekend to finish evaporating the solvent. These samples were dried further under vacuum for 3 hours at 50° C.\nApproximately 20 volumes of solvent (0.5 mL) was added to each vial containing the dried solids. The three solvents selected were EtOH, EtOAc, and IPA:water (9:1 vol). Once solvents were added, the mixtures (or solutions) were stirred at room temperature. When slurries were formed, the solids were filtered for XRPD analysis.\nXRPD analysis was done in three stages. XRPD of the wet cake was done for all collected samples. […]",
  "data": [
    {"substance": "(S)-12-fluoro-4-(2-methylpyridin-3-yl)-7a,8,13,14-tetrahydro-7H-[1,2,4]triazolo[4′,3′:1,6]pyrido[3,2-b]benzofuro[4,3-fg][1,4]oxazonine [Hydrochloric acid (5)]", "values": [
      {"measurement": "XRPD Form humidity", "result": "Am"}
    ]}
  ]
}
